Key:
hPPARα (LBD) = hPPARα (LBD) (Homo sapiens, UniProt Q07869); assay: GAL4-hPPARα (LBD) luciferase reporter transactivation in CV-1 cells; settings: read-out: PPAR activities EC50 PPARα, about 40 hours, relative to GW-590735 as 100%
hPPARδ (LBD) = hPPARδ (LBD) (Homo sapiens, UniProt Q03181); assay: GAL4-hPPARδ (LBD) luciferase reporter transactivation in CV-1 cells; settings: for EC50: read-out: PPAR activities EC50 PPARδ, CV-1 cells, about 40 hours, relative to GW-501516 as 100%
hPPARγ (LBD) = hPPARγ (LBD) (Homo sapiens, UniProt P37231); assay: GAL4-hPPARγ (LBD) luciferase reporter transactivation in CV-1 cells; settings: read-out: PPAR activities EC50 PPARγ, about 40 hours, relative to Rosiglitazone as 100%

By UniProt entry, the sequences of proteins in these tests, tags left out. Where a name states a change or a piece, a line headed by the entry shows the natural chain unless it says otherwise. Residues count along the entry.
UniProt Q07869, 239-466 limits assumed: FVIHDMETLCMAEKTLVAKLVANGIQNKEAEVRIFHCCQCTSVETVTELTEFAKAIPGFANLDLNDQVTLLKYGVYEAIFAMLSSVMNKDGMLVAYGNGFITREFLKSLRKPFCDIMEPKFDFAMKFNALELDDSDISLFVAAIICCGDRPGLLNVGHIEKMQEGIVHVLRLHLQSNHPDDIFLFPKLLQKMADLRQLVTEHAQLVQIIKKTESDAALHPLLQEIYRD
UniProt Q03181, 211-439 limits assumed: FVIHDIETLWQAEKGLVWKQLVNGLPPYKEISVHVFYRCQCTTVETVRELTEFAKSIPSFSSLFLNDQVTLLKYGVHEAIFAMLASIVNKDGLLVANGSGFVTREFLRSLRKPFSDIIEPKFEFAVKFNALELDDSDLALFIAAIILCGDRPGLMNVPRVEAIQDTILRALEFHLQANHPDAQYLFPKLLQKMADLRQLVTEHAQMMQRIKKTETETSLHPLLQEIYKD
UniProt P37231, 238-503 limits assumed: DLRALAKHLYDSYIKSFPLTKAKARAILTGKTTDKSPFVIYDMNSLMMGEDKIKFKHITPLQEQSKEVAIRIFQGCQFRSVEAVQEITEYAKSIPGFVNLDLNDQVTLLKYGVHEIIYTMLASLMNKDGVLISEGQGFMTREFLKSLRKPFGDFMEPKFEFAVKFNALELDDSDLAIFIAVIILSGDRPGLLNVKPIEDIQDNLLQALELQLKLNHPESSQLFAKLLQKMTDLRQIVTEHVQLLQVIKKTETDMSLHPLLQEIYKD

SMILES	EC50 (hPPARα (LBD))	EC50 (hPPARδ (LBD))	PPARδ activator effect (in words) (hPPARδ (LBD); summary of Table 3)	EC50 (hPPARγ (LBD))
CCc1cc(COc2ccc(OC)cc2Cn2c(CC)nc3cc(Br)ccc32)ccc1OCC(=O)O	0.376 µM	21.1 µM	strong and selective PPARδ activator effect	13.4 µM
CCc1cc(COc2ccccc2Cn2c(N)nc3cc(Br)ccc32)ccc1OCC(=O)O	0.243 µM	1.62 µM		5.68 µM
